Legend:
Raji = format: cell-based; settings: gemcitabine and/or oxaliplatin at EC30 concentrations, with or without epcoritamab, 48 hours
Procedure: (§1) Briefly, human Burkitt lymphoma (Raji) and DLBCL (SU-DHL-4) cell lines were used as target cells. Cells were cultured in culture medium (RPMI 1640 with HEPES and L-Glutamine supplemented with 10% heat-inactivated donor bovine serum with iron, and 1% [v/v] penicillin/streptomycin) to which 2 mM L-glutamine and 1 mM sodium pyruvate were added, at 37° C., 5% CO2. T cells, isolated from human healthy donor buffy coats (Sanquin) by negative selection using the RosetteSep™ Human T Cell Enrichment Cocktail (Stemcell Technologies), followed by density centrifugation over a Ficoll gradient, both according to the manufacturer's instructions, were used as effector cells. Isolated cells were washed twice in phosphate buffered saline (PBS) and counted using acridine orange/propidium iodide (AO/PI) viability staining solution (Nexcelom Bioscience) on a Cellometer® Auto 2000 Cell Viability Counter. […] B-cell viability and T-cell activation were measured by flow cytometry (count of CD22-positive cells; expression of the T-cell activation markers CD69, CD25, programmed cell death protein 1 (PD-1), and CD107 [lysosomal associated membrane protein 1; LAMP-1] on CD4+ and CD8+ T cells). Absolute cell numbers were determined by adding Accucheck Counting beads (100 μL/well) (Thermofisher) and calculated as follows: […]

SU-DHL-4 = format: cell-based; settings: SU-DHL-4 cells; gemcitabine and/or oxaliplatin at EC30 concentrations, with or without epcoritamab; 48 hours
Procedure: as §1

[SP-4-2-(1R-trans)]-(1,2-cyclohexanediamine-N,N′)[ethanedioata(2-)-O,O′]platinum [oxaliplatin]
cytotoxicity of B cells (Raji): induced cytotoxicity of B cells | cytotoxicity of B cells (SU-DHL-4): induced cytotoxicity of B cells

From patent US20220112309A1, “BISPECIFIC ANTIBODY AGAINST CD3 AND CD20 IN COMBINATION THERAPY FOR TREATING DIFFUSE LARGE B-CELL LYMPHOMA” (GENMAB A/S, priority 2020, published 2022)
